Values quoted from earlier work as cited in patent publication US7816404B2, “Methods for the preparation and use of ferric pyrophosphate citrate chelate compositions” (Rockwell Medical Technologies, Inc., priority 2007, dated 2010).

Key:
[1] = after intravenous injection
[2] = formulated in water containing 0.9% sodium chloride, during injection

Question: Which Bioavailable iron [1] does the source give for iron dextran here?
Answer: about half

Question: What about the Adverse reactions [2] of the same substance?
Answer: occasionally causes severe allergic reactions, fever and rashes during injection
